Columns and labels:
[1] = molecular target: Mu-type opioid receptor (Mus musculus) (UniProt P42866); assay: Agonist activity at mouse mu opioid receptor expressed in CHO cells assessed as stimulation of [35S]-GTPgammaS binding after 1.5 hrs relative to DAMGO; format: functional, cell-based
Mus musculus [2] = species on record: Mus musculus; assay: Selectivity ratio of Ki for mouse delta opioid receptor to Ki for mouse mu opioid receptor
Mus musculus [3] = species on record: Mus musculus; assay: Selectivity ratio of Ki for mouse kappa opioid receptor to Ki for mouse mu opioid receptor

Sequences of proteins named here, by UniProt entry; tags and fusion partners are left off.
UniProt P42866, whole entry: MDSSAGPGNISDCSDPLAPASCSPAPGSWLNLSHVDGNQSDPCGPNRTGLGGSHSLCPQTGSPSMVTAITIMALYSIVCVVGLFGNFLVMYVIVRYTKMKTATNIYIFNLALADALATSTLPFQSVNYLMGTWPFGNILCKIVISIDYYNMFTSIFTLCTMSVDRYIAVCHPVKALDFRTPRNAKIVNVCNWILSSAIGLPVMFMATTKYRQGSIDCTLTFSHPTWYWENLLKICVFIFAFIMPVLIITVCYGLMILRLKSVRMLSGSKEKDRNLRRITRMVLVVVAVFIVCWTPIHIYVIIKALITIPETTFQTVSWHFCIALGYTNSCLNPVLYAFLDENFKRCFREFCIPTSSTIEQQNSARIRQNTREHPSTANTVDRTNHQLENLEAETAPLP

Row | Compound | Emax [1] [%] | Ratio Ki (Mus musculus [2]) | Ratio Ki (Mus musculus [3])
1 | O=C(N[C@H]1CC[C@@]2(O)[C@H]3Cc4ccc(O)c5c4[C@@]2(CCN3CC2CC2)[C@H]1O5)c1cc2ccccc2c(Cl)n1 | 26.4 | 63 | 8.6
2 | O=C(N[C@H]1CC[C@@]2(O)[C@H]3Cc4ccc(O)c5c4[C@@]2(CCN3CC2CC2)[C@H]1O5)c1ncc2ccccc2c1O | – | 73 | 8.9

From ChEMBL document CHEMBL2417375 (Bioorg Med Chem Lett, 2013)
